Patent publication US20020183384A1, “Methods of treating nuclear factor-kappa B mediated diseases and disorders” (priority 2001, published 2002)

System: NF-κB mediated transcription
Assay: NF-κB driven β-lactamase reporter assay in ECV-304 NF-κB.βlaZ cells (AURORA CCF2 fluorescence)
Format: cell-based, human
Settings: 10 μM compound; ECV-304 NF-κB.βlaZ cells stimulated with 10 ng/mL TNF-α or 100 pg/mL IL-1β, 6 hours at 37° C.; inhibition of maximum blue/green ratio
From the text: Introduction: Described below is an in vitro, cell-based, high throughput screening assay that reliably identifies inhibitors of NF-κB mediated transcription. While the assay described below utilized inhibitors which were sulfonylaminocarbonyl derivatives useful in the present invention, the assay may be used to screen for any inhibitor of NF-κB mediated transcription.
The assay takes advantage of AURORA (Aurora Bioscience Corporation, La Jolla, Calif.) fluorescence technology. […] Visually, the uncleaved green fluorescent substrate is sequestered intracellularly and emits green fluorescence, while the cleaved product emits blue fluorescence. Fluorescence is quantitated spectrophotometrically, and the spectral intensity of blue fluorescence versus green fluorescence can be used to calculate the degree of activation of NF-κB.
The assay was performed as outlined here and described in detail below. […] After one additional hour, the plates were read in a fluorometer at the blue 395 nm/460 nm (excitation/emission) and green 395 nm/530 nm wavelengths. Then the blue/green emission ratio was calculated. Percent inhibition was calculated by comparing fluorescence in the presence of a sulfonylaminocarbonyl derivative useful in the present invention with fluorescence in the absence of said sulfonylaminocarbonyl derivative under conditions of maximum stimulation with TNF-α or IL-1β. […]

CC(C)CCN(CCC(C)C)S(=O)(=O)NC(=O)Nc1c(C(C)C)cccc1C(C)C [Example 74, Urea, N-[[bis(3-methylbutyl)amino]sulfonyl]-N′-[2,6-bis(1-methylethyl)phenyl]-]
Percent Inhibition at 10 μM: 37.58%
